{"source": "patent US20230039395A1", "about": "“LSD AND […] EQUIVALENCE DETERMINATION” (Universitätsspital Basel, priority 2021, published 2023)", "experiment": "Plasma exposure of LSD and iso-LSD after LSD capsules in previous studies", "conditions": "on average, from AUC24 of LSD and iso-LSD", "data": [{"compound": "CCN(CC)C(=O)[C@@H]1C=C2c3cccc4[nH]cc(c34)C[C@H]2N(C)C1", "note": "[LSD, lysergic acid diethylamide]", "values": [{"measurement": "share of LSD that may have isomerized to inactive iso-LSD in the capsules", "result": 30, "unit": "%"}]}]}
